# scFv variants of Ab-14 (heavy chain) against a SARS-CoV-2 spike peptide

Reference: Li et al. 2023, doi:10.1038/s41467-023-39022-2. File: FLAb, binding data.

Antigen: PDVDLGDISGINAS, a 14-residue peptide of the SARS-CoV-2 spike HR2 region.

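The starting antibody came from a phage panning campaign against this peptide. These sequences belong to a second round, designed from the earlier measurements on random variants of the parent. Their group label is 14H_Rand (Rand: our label for a block that the file lists under HC and that is probably the random mutants of the ten best first-round binders). The scFvs were displayed on barcoded MATa yeast, the peptide on MATalpha yeast. Mating (16 h, 30 °C) was followed by selection of diploids and sequencing of their barcodes. The ratio of observed to expected reads was calibrated, replicate by replicate, on BCL2-family standards whose Kd was known from biolayer interferometry. Mating was done six times.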

Parent: Ab-14, a human scFv built as VH, a 15-residue (Gly4Ser)3 linker, VL. Only the CDRs of the heavy chain vary.
VH: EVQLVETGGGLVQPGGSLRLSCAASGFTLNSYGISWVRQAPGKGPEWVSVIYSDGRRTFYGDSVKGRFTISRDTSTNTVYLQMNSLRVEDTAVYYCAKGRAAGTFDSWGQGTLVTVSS
VL: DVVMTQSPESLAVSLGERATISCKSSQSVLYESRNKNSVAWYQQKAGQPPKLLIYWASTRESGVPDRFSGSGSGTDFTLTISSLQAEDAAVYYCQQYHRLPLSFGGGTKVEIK

Each variant is given by its three heavy chain CDRs, as the data file delimits them; those of the parent are GFTLNSYGIS, VIYSDGRRTFYGDSVK, GRAAGTFDS. Scale: log10 of Kd in nM, estimated from mating counts; low values are strong binders. A mean of the replicates is given; it leaves out those without a signal. A pair that was not seen in that replicate is written "ND"; this usually means weak binding, but a binder can also be missed. Of ten entries with the parent sequence, four were seen in most replicates (averages 0.34 to 2.37), three in one and three in none, so single entries are noisy. Empty control strains, which show no peptide, gave a signal in 1% of pairings with all heavy chain designs; the median was 2.08 and 95% of these signals were weaker than 0.84. No background was subtracted. The control count says in how many pairings with the empty strains this scFv gave a signal, with their mean in brackets. Values of this round are not directly comparable with the first-round values of the same sequences. In the paper, a design with two or fewer of six values counts as a poor binder.

{"CDR-H1": "GFTLNDYGIS", "CDR-H2": "VIYSDGRRTFYGDSVK", "CDR-H3": "GRAALVFIS", "log10 Kd, replicates": "ND / ND / ND / ND / ND / ND", "mean, log10 nM": "ND", "empty controls": "0 of 18"}
{"CDR-H1": "GFCLNSYGIS", "CDR-H2": "VIYSDGPRTFYGDSVK", "CDR-H3": "RRAAGWFNS", "log10 Kd, replicates": "ND / ND / ND / ND / ND / ND", "mean, log10 nM": "ND", "empty controls": "0 of 18"}
{"CDR-H1": "GFTLNNYGIS", "CDR-H2": "VIYFDGRRTFYGDSVK", "CDR-H3": "GRAALTYIS", "log10 Kd, replicates": "ND / ND / ND / ND / ND / ND", "mean, log10 nM": "ND", "empty controls": "0 of 18"}
{"CDR-H1": "GFTNNQYGDS", "CDR-H2": "VIYSDGRRTFYSDSVK", "CDR-H3": "GRAKGFFDS", "log10 Kd, replicates": "ND / ND / ND / ND / ND / ND", "mean, log10 nM": "ND", "empty controls": "0 of 18"}
{"CDR-H1": "GFTLNSYGIS", "CDR-H2": "VIYADGRRTFYGDSVK", "CDR-H3": "TRAAGTNKS", "log10 Kd, replicates": "ND / ND / ND / ND / ND / ND", "mean, log10 nM": "ND", "empty controls": "0 of 18"}
{"CDR-H1": "GFTLNQYGIS", "CDR-H2": "VILSDGRRTAYSDSVK", "CDR-H3": "GRAAGFTDS", "log10 Kd, replicates": "ND / ND / ND / ND / ND / ND", "mean, log10 nM": "ND", "empty controls": "0 of 18"}
{"CDR-H1": "GGTLDKYGIS", "CDR-H2": "VIYSDGRRTFYGDSVK", "CDR-H3": "GRNAGTALS", "log10 Kd, replicates": "ND / ND / ND / ND / ND / ND", "mean, log10 nM": "ND", "empty controls": "0 of 18"}
{"CDR-H1": "GFTLNSYGES", "CDR-H2": "VIYADGRITHYGDSVK", "CDR-H3": "GHAAGTNKS", "log10 Kd, replicates": "ND / ND / ND / ND / ND / ND", "mean, log10 nM": "ND", "empty controls": "1 of 18 (2.46)"}
{"CDR-H1": "GFTLNQYAIS", "CDR-H2": "VIYSDGRETFYSDSVK", "CDR-H3": "GPAAGFFQS", "log10 Kd, replicates": "ND / ND / ND / ND / ND / ND", "mean, log10 nM": "ND", "empty controls": "0 of 18"}
{"CDR-H1": "GFTLNEYGIS", "CDR-H2": "VIYSDGRRTFYGDSFK", "CDR-H3": "GRAAVTFDQ", "log10 Kd, replicates": "ND / ND / ND / ND / ND / ND", "mean, log10 nM": "ND", "empty controls": "0 of 18"}
{"CDR-H1": "GETLNQYGFL", "CDR-H2": "VIYSDGRRTFYSDSVK", "CDR-H3": "GRAAGFFDS", "log10 Kd, replicates": "ND / ND / ND / 2.53 / ND / ND", "mean, log10 nM": "2.53", "empty controls": "0 of 18"}
{"CDR-H1": "GFTLNSYGIS", "CDR-H2": "VIYSDGRRTNVSDSVK", "CDR-H3": "GRAGGTEDS", "log10 Kd, replicates": "ND / ND / ND / ND / ND / ND", "mean, log10 nM": "ND", "empty controls": "0 of 18"}
{"CDR-H1": "DFTLNDYGIS", "CDR-H2": "VIYSDGRRTFYGDSVK", "CDR-H3": "GRARLTFIT", "log10 Kd, replicates": "ND / ND / ND / ND / ND / ND", "mean, log10 nM": "ND", "empty controls": "0 of 18"}
{"CDR-H1": "GFTLNDYGHS", "CDR-H2": "VIYSDGRRTQYIDSVK", "CDR-H3": "GRAAGTFDS", "log10 Kd, replicates": "ND / ND / ND / ND / ND / ND", "mean, log10 nM": "ND", "empty controls": "0 of 18"}
{"CDR-H1": "GFTLNDDGIS", "CDR-H2": "VKHSDGRRQQYIDSVK", "CDR-H3": "GRADGTFDS", "log10 Kd, replicates": "ND / ND / ND / ND / ND / ND", "mean, log10 nM": "ND", "empty controls": "1 of 18 (1.35)"}
{"CDR-H1": "GFTLNQYGIE", "CDR-H2": "VIYSDGRRTFYSDSVK", "CDR-H3": "GRAAGFFDS", "log10 Kd, replicates": "ND / ND / ND / ND / ND / ND", "mean, log10 nM": "ND", "empty controls": "0 of 18"}
{"CDR-H1": "GFDLNSYGIW", "CDR-H2": "VIVSDGRRTFYGDSVK", "CDR-H3": "GRAAGWFNS", "log10 Kd, replicates": "ND / 1.32 / ND / ND / ND / ND", "mean, log10 nM": "1.32", "empty controls": "0 of 18"}
{"CDR-H1": "GFTLNSYGIS", "CDR-H2": "VIYSDKRRTFYSDSVK", "CDR-H3": "GRAGGTFDS", "log10 Kd, replicates": "ND / ND / ND / ND / ND / ND", "mean, log10 nM": "ND", "empty controls": "1 of 18 (2.47)"}

The last 3 entries again:

CDR-H1	CDR-H2	CDR-H3	log10 Kd, replicates	mean, log10 nM	empty controls
GFTLNQYGIE	VIYSDGRRTFYSDSVK	GRAAGFFDS	ND / ND / ND / ND / ND / ND	ND	0 of 18
GFDLNSYGIW	VIVSDGRRTFYGDSVK	GRAAGWFNS	ND / 1.32 / ND / ND / ND / ND	1.32	0 of 18
GFTLNSYGIS	VIYSDKRRTFYSDSVK	GRAGGTFDS	ND / ND / ND / ND / ND / ND	ND	1 of 18 (2.47)